By UniProt entry, the sequences of proteins in these tests, tags left out.
UniProt P41146, whole entry: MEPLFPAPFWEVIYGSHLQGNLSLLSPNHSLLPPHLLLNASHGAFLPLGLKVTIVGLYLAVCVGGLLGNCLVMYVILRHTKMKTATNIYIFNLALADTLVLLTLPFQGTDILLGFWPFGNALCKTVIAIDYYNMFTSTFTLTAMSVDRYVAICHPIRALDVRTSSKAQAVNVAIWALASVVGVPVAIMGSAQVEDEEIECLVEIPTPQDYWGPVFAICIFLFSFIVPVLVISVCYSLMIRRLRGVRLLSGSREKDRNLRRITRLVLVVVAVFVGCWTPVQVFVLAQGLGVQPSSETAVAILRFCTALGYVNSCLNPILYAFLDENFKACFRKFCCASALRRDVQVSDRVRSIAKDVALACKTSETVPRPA
UniProt P35372, whole entry: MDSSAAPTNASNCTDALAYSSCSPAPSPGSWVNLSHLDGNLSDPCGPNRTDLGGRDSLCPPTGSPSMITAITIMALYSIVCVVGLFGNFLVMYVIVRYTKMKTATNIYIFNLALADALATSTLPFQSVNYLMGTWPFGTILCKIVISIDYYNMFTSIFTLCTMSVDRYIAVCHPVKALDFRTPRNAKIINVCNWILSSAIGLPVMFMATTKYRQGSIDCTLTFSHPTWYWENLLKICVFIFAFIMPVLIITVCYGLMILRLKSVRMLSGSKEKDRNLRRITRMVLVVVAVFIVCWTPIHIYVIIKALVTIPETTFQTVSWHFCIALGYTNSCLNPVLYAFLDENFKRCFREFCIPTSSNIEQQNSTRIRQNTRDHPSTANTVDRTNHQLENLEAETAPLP

According to patent US20160159787A1, “Cis-tetrahydro-spiro(cyclohexane-1, 1' -pyrido[3,4-b]indole)-4-amine Compounds” (published 2016):

Tests used:
[1] = biological target: ORL1 receptor (Homo sapiens, UniProt P41146); test: ORL1 receptor binding (3H-nociceptin/orphanin FQ, CHO-ORL1 membranes); conditions: read-out: Ki (ORL1); binding affinity
Description: Methods for determining the Ki value on the ORL1 receptor are known to persons skilled in the art. The determination is preferably carried out in a receptor binding assay with ^3H-nociceptin/orphanin FQ with membranes of recombinant CHO-ORL1 cells. This test system is preferably carried out according to the method put forward by Ardati et al. (Mol. Pharmacol., 51, 1997, p. 816-824). The concentration of ^3H-nociceptin/orphanin FQ in these tests is preferably 0.5 nM. The binding assays are preferably carried out with in each case 20 μg of membrane protein per 200 μl batch in 50 mM Hepes, pH 7.4, 10 mM MgCl2 and 1 mM EDTA. Binding to the ORL1 receptor is preferably determined using in each case 1 mg of WGA-SPA beads (Amersham-Pharmacia, Freiburg) by incubating the batch for one hour at RT and then measuring in a Trilux scintillation counter (Wallac, Finland).

[2] = biological target: human μ-opiate receptor (Homo sapiens, UniProt P35372); test: μ-opioid receptor binding ([3H]-naloxone, CHO-K1 membranes); conditions: read-out: Ki (μ); binding affinity
Description: Methods of determining the Ki value on the μ-opioid receptor are known to persons skilled in the art. The determination is preferably carried out in a homogeneous batch in microtitre plates. To that end, serial dilutions of the substances to be tested are preferably incubated for 90 minutes at room temperature with a receptor membrane preparation (15-40 μg of protein per 250 μl of incubation batch) of CHO-K1 cells which express the human μ-opiate receptor (RB-HOM receptor membrane preparation from NEN, Zaventem, Belgium) in the presence of 1 nmol/l of the radioactive ligand [^3H]-naloxone (NET719, NEN, Zaventem, Belgium) and 1 mg of WGA-SPA beads (wheat germ agglutinin SPA beads from Amersham/Pharmacia, Freiburg, Germany), in a total volume of 250 There is preferably used as the incubation buffer 50 mmol/l of Tris-HCl supplemented with 0.05 wt. % sodium azide and 0.06 wt. % bovine serum albumin. For the determination of non-specific binding, 25 μmol/l of naloxone are preferably added in addition. When the 90-minute incubation time is complete, the microtitre plates are preferably centrifuged off for 20 minutes at 1000 g and the radioactivity is measured in a β counter (Microbeta-Trilux, PerkinElmer Wallac, Freiburg, Germany). The percentage displacement of the radioactive ligand from its binding to the human μ-opiate receptor at a concentration of the test substances of preferably 1 μmol/l is determined and indicated as the percentage inhibition (% inhibition) of specific binding. On the basis of the percentage displacement by different concentrations of the compounds to be tested it is possible to calculate IC50 inhibitory concentrations, which effect 50% displacement of the radioactive ligand. The Ki values for the test substances can be calculated therefrom by conversion by means of the Cheng-Prusoff equation.

| Compound | Ki [1] | Ki [2] |
| --- | --- | --- |
| CN(C)[C@]1(c2cccc(F)c2)CC[C@]2(CC1)NCCc1c3ccccc3[nH]c12 | 0.4 nM | 0.5 nM |
| CN(C)[C@]1(c2cccs2)CC[C@@]2(CC1)OCCc1c3ccccc3[nH]c12 | 31 nM | 92 nM |
| CN(C)[C@]1(c2cccc(F)c2)CC[C@@]2(CC1)NCCc1c3ccccc3[nH]c12 | 12 nM | 31 nM |
| CN(C)[C@]1(c2ccsc2)CC[C@@]2(CC1)OCCc1c3cc(F)ccc3[nH]c12 | 60 nM | 120 nM |
